The record followed here is patent US20250049798A1, “WEE1 PROTEIN KINASE DEGRADATION AGENT AND USE THEREOF” (HANGZHOU GLUBIO PHARMACEUTICAL CO. LTD., priority 2021, published 2025).

Sequences of proteins named here, by UniProt entry; tags and fusion partners are left off.
UniProt P30291, whole entry: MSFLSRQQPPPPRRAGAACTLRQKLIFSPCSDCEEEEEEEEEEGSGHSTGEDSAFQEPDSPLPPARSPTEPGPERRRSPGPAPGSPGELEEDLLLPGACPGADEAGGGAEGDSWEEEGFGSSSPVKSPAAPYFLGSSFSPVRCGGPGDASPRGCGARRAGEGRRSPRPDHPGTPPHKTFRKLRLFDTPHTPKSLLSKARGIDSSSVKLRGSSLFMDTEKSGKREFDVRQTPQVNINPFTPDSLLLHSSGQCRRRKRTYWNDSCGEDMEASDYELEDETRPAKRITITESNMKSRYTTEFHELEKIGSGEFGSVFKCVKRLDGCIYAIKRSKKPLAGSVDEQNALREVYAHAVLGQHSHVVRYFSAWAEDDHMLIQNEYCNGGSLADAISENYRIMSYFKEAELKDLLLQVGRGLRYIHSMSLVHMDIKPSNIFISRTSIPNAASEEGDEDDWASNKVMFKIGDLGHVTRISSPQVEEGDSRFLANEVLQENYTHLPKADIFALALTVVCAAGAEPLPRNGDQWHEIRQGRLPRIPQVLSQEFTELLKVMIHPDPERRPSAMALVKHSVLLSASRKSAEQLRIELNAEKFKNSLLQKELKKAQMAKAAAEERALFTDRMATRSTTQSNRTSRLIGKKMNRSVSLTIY

Molecules are shown by their SMILES.

One assay has as its system NCI-H1048 cells. The assay is described as follows: NCI-H1048 cell proliferation assay (CTG assay). Conditions: read-out: CTG cellular assay_H1048: IC50, 120 hours.
In the next assay the target is HiBiT tagged Wee1 (Homo sapiens, UniProt P30291). Description: Wee1 protein degradation assay (HiBiT assay). The settings on record: engineered HT-1080 cells, 20 hours; for HiBiT Wee1: Dmax: maximum percentage of Wee1 degradation; for DC50: read-out: HiBIT Wee1: DC50. In kind it is cell-based. Background: HiBiT is a short tag that completes a luciferase, so light tracks the accessible tagged protein.

What is called IC50 is the point on the concentration scale where inhibition reaches its midpoint. One may read the DC50 as the concentration at which degradation of the target reaches its halfway point. In the case of `C=CCn1c(=O)c2cnc(Nc3ccc(N4CCN(CC5CCN(c6ccc(NC7CCC(=O)NC7=O)cc6)CC5)CC4)cc3)nc2n1-c1cccc(C(C)(C)O)n1` (stereo not drawn), in the assay on NCI-H1048 cells, the IC50 was less than 25 nM. On HiBiT tagged Wee1, the “HiBiT Wee1: Dmax” value was “B (“B” represents 50% ≤ Dmax < 75% in the HiBiT assay)” and the DC50 is less than 100 nM.

With `C=CCn1c(=O)c2cnc(Nc3ccc(N4CCN(CCCc5cccc6c5n(C)c(=O)n6C5CCC(=O)NC5=O)CC4)cc3)nc2n1-c1cccc(C(C)(C)O)n1` (stereo not drawn), the concentration for half-maximal inhibition (IC50) in the assay with NCI-H1048 cells lay within 25 to 100 nM. At HiBiT tagged Wee1, the “HiBiT Wee1: Dmax” value is on record as “B (“B” represents 50% ≤ Dmax < 75% in the HiBiT assay)” and the DC50 is less than 100 nM.
